Literature values, collected in patent US5648396A, “Methods for treating depression and other disorders using optically pure R (-) fluoxetine and monoamine oxidase inhibitor” (Sepracor Inc., priority 1995, dated 1997).

Tests used:
[1] = target: 5HT uptake cortical synaptasomes; settings: cited from earlier work; for Ki: Wong et al 1985; for IC50: Wong et al 1988
[2] = tested on: H1 receptor; settings: relative to effect on 5HT uptake; cited from earlier work
[3] = tested on: M1 receptor; settings: relative to effect on 5HT uptake; cited from earlier work
[4] = tested on: muscarinic receptors; settings: than tricyclic antidepressants; brain tissue; cited from earlier work

Structure (SMILES): CNCC[C@@H](Oc1ccc(C(F)(F)F)cc1)c1ccccc1 [R-Fluoxetine, (-)N-methyl-3-phenyl-3-[(α,α,α-trifluoro-p-tolyl)-oxy]-propylamine]
- Ki [1]: 0.033 µM
- IC50 [1]: 0.0995 µM
- affinity for H1 receptor [2]: relatively little affinity
- affinity for M1 receptor [3]: relatively little affinity

Structure (SMILES): CNCCC(Oc1ccc(C(F)(F)F)cc1)c1ccccc1 (racemic) [R,S-Fluoxetine]
- binding to muscarinic receptors [4]: much less potently
- Ki [1]: 0.03 µM

Structure (SMILES): CNCC[C@H](Oc1ccc(C(F)(F)F)cc1)c1ccccc1 [S-Fluoxetine]
- Ki [1]: 0.021 µM
- IC50 [1]: 0.0615 µM
- affinity for H1 receptor [2]: relatively little affinity
- affinity for M1 receptor [3]: relatively little affinity
